Source: US10967029B2, “Method of using Cistanche tubulosa extract to prevent, slow down, or treat an eye disease caused by oxidative stress” (Sinphar Pharmaceutical Co., Ltd., priority 2014, dated 2021)

Test system: RPE cells
Conditions: high concentrations (IC50 concentrations), t-BHP
Description: The cell culturing comprises the following steps. • 1. RPE cell clones were taken out from anti-frozen tubes in liquid nitrogen and quickly moved to a sterile hood after thawed in 37° C. water bath for 1 minute. RPE cell clones were taken out and placed in 10 cm dishes having 10 mL DMEM (Dulbecco's Modified Eagle Medium) therein. 10% inactivated fetal bovine serum (FBS), 2 mM L-glutamine, 100 U/mL penicillin, and 100 µg/mL streptomycin were added into the DMEM. • 2. The dishes were placed in a 37° C. incubator and cultured in conditions of a mixture gas of 95% air and 5% CO2, as well as 70% humidity. The old mediums were replaced by fresh mediums every 3 days. Serum-free DMEM was used instead of the mediums before performing experiments. • 3. When cells proliferated to nearly saturation, the numbers of cells were counted by a cell counter. […] Since RPE cells are attachment type cells, the medium containing the cells was transferred into 15 mL centrifugation tubes and then centrifuged at 72 g for 5 mines at room temperature when the medium was replaced. […]
Before experiment, the medium was replaced by serum-free medium. Fixed quantity of RPE cells (2×10^5 cells/mL) were respectively placed in 96 wells of a plate. […] After completely dissolving the residual cells, the enzyme immunoassay analyzer was used to detect the absorbance of each well. […]

echinacoside [Embodiment 2]
cytotoxicity response at high concentration: reasonable cytotoxicity responses were observed
